# Measured values reported in PubChem BioAssay AID588456 (National Center for Advancing Translational Sciences (NCATS), 2011).
# Protein sequences, listed by entry. Tags and fused reporters are not part of them.
# UniProt O89049, whole entry: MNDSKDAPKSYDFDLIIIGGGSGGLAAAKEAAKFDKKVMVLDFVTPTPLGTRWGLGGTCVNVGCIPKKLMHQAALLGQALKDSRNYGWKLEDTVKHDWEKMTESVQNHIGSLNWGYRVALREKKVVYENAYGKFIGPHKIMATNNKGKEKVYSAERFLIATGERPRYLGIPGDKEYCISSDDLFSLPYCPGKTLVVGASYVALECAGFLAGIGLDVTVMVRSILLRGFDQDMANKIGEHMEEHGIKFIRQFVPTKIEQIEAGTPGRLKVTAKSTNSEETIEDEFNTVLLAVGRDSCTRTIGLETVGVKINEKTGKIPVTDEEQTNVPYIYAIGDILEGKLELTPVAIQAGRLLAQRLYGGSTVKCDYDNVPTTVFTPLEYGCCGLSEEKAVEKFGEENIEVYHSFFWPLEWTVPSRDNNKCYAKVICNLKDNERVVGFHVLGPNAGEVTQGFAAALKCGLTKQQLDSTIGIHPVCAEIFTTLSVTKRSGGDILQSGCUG
# This is a selection; strong and weak results do not stand in their true shares. The source made the active and inactive calls. Calls follow the shape of the dose curve; as a rule, active = well fitted inhibition curve with a large enough effect; inconclusive = small, poorly fitted or top-dose-only effect; inactive = no such curve, though single readings can be large or run the other way.
# Target: Thioredoxin reductase 1, cytoplasmic (Rattus norvegicus) (UniProt O89049)
# Experiment: qHTS Assay for Substrates of Mammalian Selenoprotein Thioredoxin Reductase 1 (TrxR1): qHTS; also: nearly all actives have a fitted effect of over 50% in size
# Conditions: purified TrxR1 substrate turnover, NADPH consumption readout; at 114 µM (top of the series) unless noted
# % is scaled to controls: 0 for no effect and ±100 for the full control effect.
row,Compound,"activity change, negative = substrate turnover"
1,COc1ccc(NC2CCN(CCc3ccccc3)CC2)c(OC)c1,inactive: 9.36% [at 57.1 µM]
2,COc1ccccc1C(=O)NCC1(N2CCOCC2)CCCCC1,inactive: 0.855%
3,CCOc1ccc(C)cc1CN(CCCl)CCCl,inactive: 5.91% [at 57.1 µM]
4,O=C(NCC1(N2CCOCC2)CCCCC1)c1ccc(Cl)cc1,inactive: -0.9%
5,O=C1CCN(Cc2ccccc2)CC1,inactive: -4.85%
6,O=C(NCC1(N2CCCCC2)CCCCC1)c1ccco1,inactive: -3.49%
7,CC(C)(C)c1ccc(C(=O)NCC2(N3CCOCC3)CCCCC2)cc1,inactive: -5.19%
8,CN(C)c1ccc(C(=O)NCC2(N3CCCCC3)CCCCC2)cc1,inactive: -8.76% [at 57.1 µM]
9,Cn1c(=O)[nH]cc(N(CCCl)CCCl)c1=O,inactive: -4.73%
10,Cc1ccccc1C(=O)NCC1(N(C)C)CCCCC1,inactive: 1.06%
11,Cc1ccccc1NC1(C#N)CCN(Cc2ccccc2)CC1,inactive: 3.17%
12,CCN1CCC(Nc2cccc(F)c2)CC1,inactive: -5.71%
13,Cc1ccc(NC2(C#N)CCN(Cc3ccccc3)CC2)cc1,inactive: 4.83% [at 57.1 µM]
14,Cc1ccc(C(=O)NCC2(N3CCCCC3)CCCCC2)o1,inactive: 1.39%
15,Fc1ccccc1NC1CCN(Cc2ccccc2)CC1,inactive: 4.49%
16,COc1cc(OC)cc(C(=O)NCC2(N3CCCCC3)CCCCC2)c1,inactive: 8.5% [at 57.1 µM]
17,CN(C)C1(CNC(=O)c2ccc(C(C)(C)C)cc2)CCCCC1,inactive: 0.449%
18,CC(=O)N(c1ccccc1)C1CCNCC1,inactive: -8.68%
19,CN1CCC(Nc2ccc(Cl)cc2)CC1,inactive: 2.12%
20,CCC(CO)(C(=O)OC1CN2CCC1CC2)c1ccccc1 (centres undefined),inactive: 9.43%
21,COc1cccc(C(=O)N(c2cc(C)cc(C)c2)C2CCN(C(=O)OC(C)(C)C)CC2)c1,inactive: -6.73%
22,COc1cc(OC)cc(C(=O)NCC2(N3CCOCC3)CCCCC2)c1,inactive: 7.8%
23,COc1cc(C(=O)NCC2(N3CCOCC3)CCCCC2)cc(OC)c1OC,inactive: 4.86%
24,ClCCN(CCCl)c1ccccc1,inactive: -0.0035%
25,CCCOc1ccc(C(=O)NCC2(N(C)C)CCCCC2)cc1,inactive: 10.7%

row,Compound,"activity change, negative = substrate turnover"
1,CC(C)(C)OC(=O)N1CCC(Nc2ccccc2)CC1,inactive: 1.83%
2,ClCCN(CCCl)c1ccc(C=C2C=CC=C2)cc1,inactive: -8.08%
3,O=C(O)C1(Nc2ccccc2)CCN(Cc2ccccc2)CC1,inactive: -0.0502%
4,CCOc1ncccc1C(=O)NCC1(N2CCOCC2)CCCCC1,inactive: -6.17%
5,CN1CCC(Nc2ccc(F)c(Cl)c2)CC1,inactive: -4.06% [at 57.1 µM]
6,CCc1cc(C(=O)NCC2(N3CCCCC3)CCCCC2)sc1C,inactive: -6%
7,O=C(OC1CN2CCC1CC2)C1c2ccccc2C=Cc2ccccc21 (centres undefined),inactive: 24.6%
8,O=C(O)c1cccc(Nc2c([N+](=O)[O-])cc([N+](=O)[O-])cc2[N+](=O)[O-])c1,inactive: -13.3%
9,N/C(=N\O)c1c(N)no[n+]1[O-],inactive: -1.45%
10,CCOC(=O)N1CCC(Nc2ccc(C)cc2)CC1,inactive: 6.82% [at 57.1 µM]
11,COc1ccc(C(=O)NCC2(N3CCOCC3)CCCCC2)cc1OC,inactive: -14.5%
12,O=Cc1ccc(N(CCCl)CCCl)cc1,inactive: -0.313%
13,O=C(NCC1(N2CCOCC2)CCCCC1)c1cc(Br)ccc1Cl,inactive: 5.65%
14,COc1cc(C(=O)NCC2(N3CCOCC3)CCCCC2)cc(OC)c1C,inactive: 3.42%
15,c1ccc(CN2CCC(Nc3ccccc3)CC2)cc1,inactive: -4.01%
16,Cc1cc(N(CCCl)CCCl)ccc1C=O,inactive: 7.06% [at 11.4 µM]
17,O=C(NCC1(N2CCOCC2)CCCCC1)c1ccccc1,inactive: -1.32%
18,CCCN1CCC(Nc2cc(OC)cc(OC)c2)CC1,inactive: 5.84% [at 57.1 µM]
19,CN(C)C1(CNC(=O)c2cccc(C#N)c2)CCCCC1,inactive: 6.91% [at 57.1 µM]
20,CCOC(=O)C(CC)C1=NC(C)(C)Cc2ccccc21.O=[N+]([O-])c1cc([N+](=O)[O-])c(O)c([N+](=O)[O-])c1 (centres undefined),inactive: -15.3%
21,CC(C)(C)OC(=O)N1CCC(N(C(=O)c2ccccc2)c2ccc(Cl)cc2)CC1,inactive: -5.4%
22,O=C(NCC1(N2CCOCC2)CCCCC1)c1ccc([N+](=O)[O-])cc1,inactive: 6%
23,O=C(NCC1(N2CCOCC2)CCCCC1)c1ccccc1[N+](=O)[O-],inactive: 1.17%
24,N#Cc1ccc(C(=O)NCC2(N3CCCCC3)CCCCC2)cc1,inactive: 0.316% [at 57.1 µM]
